Test results: patent publication US9085549B2, “Compounds for the treatment of neurodegenerative diseases” (ProteoTech Inc., priority 2011, dated 2015)

Sequences of proteins named here, by UniProt entry; tags and fusion partners are left off. Residues count along the entry.
UniProt P10636, 561-689 limits assumed: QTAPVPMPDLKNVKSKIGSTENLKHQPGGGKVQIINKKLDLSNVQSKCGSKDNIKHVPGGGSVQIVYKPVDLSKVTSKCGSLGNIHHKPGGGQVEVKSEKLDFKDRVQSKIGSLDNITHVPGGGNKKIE

Tests used:
[1] = tested on: A53T α-synuclein-expressing BE-M17 cells; assay: XTT assay: rotenone-induced cell death
TauRD = TauRD (Homo sapiens (Human), UniProt P10636); assay: Circular dichroism spectroscopy: tau protein β-sheet formation
[2] = tested on: BE-M17 human neuroblastoma cells stably transfected with A53T-mutant human α-synuclein; assay: Thioflavin S staining of rotenone-induced α-synuclein aggregates in cells

SMILES | IC50 [1] [µM] | inhibition of rotenone-induced cell death (in words) [1] | CD (TauRD) | inhibition of rotenone-induced Thioflavin S-positive inclusions (in words) [2]
Oc1ccc(-c2cc(-c3ccc(O)c(O)c3)c(-c3ccc(O)c(O)c3)s2)cc1O | 3.6 | significant, dose-dependent inhibition | + | significant disruption/prevention/inhibition
O=C(Nc1ccc(O)c(O)c1)c1cc(O)c(O)cc1Br | – | – | – | significant disruption/prevention/inhibition
